Screening results (PubChem BioAssay)
Statin myotox sup – suppression of simvastatin myotoxicity; C2C12 myotubes + simvastatin, ATP luminescence, 48 h; scaled: DMSO 0, geranylgeraniol control 100; rescue of ATP level, % at 7.49 µM; actives 0.78% (n = 330,000);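 active = mean ATP rescue above about 67%, or every replicate alone reaching that limit, limit read from the data, passing the limit was not always enough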;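 note: myotubes were challenged with 10 µM simvastatin during compound exposure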
UUG fidelity – modulators of start codon recognition fidelity in yeast. S. cerevisiae UUG-firefly luciferase reporter, luminescence/redox ratio. activity score, % at 18.7 µM. 0.13% of 350,000 active. AID 602363;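 active = replicate mean at a twofold rise or more, about +100% in these data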;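 also: firefly luciferase made from a UUG start codon reports start codon fidelity; reporter light over untreated wells divided by growth signal over untreated wells; some hits fall short of that in this replicate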
Cneo AK release – causes C. neoformans cell lysis; adenylate kinase release luminescence, 4 h; normalised: neutral wells 0, clomiphene wells 100; lysis activity, % at 15 µM; actives 0.2% (n = 360,000);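 active = mean lysis activity across replicates of at least 80%, whatever share of replicates individually reach that level; inactive = mean lysis activity below 80%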
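Material – Cryptococcus neoformans yeast cells · Quantity – 5 × 10^6 yeast cells/mL · Buffer or medium – YPD medium · Compound – single dose · Timing – 4 h static compound exposure, 37 °C, read 1 h post-reagent · Signal – adenylate kinase release luminescence · Read-out basis – lysis from increased AK signal · Benchmarks – Clomiphene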
CDK5 p35 inh – CDK5/p35 (human) kinase inhibition; Recombinant CDK5/p35, ADP-Glo luminescence, 60 min; actives 0.01% (n = 330,000); AID 488839; inhibition, % at 10 µM;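 active = highest replicate inhibition of at least 50% and at least 75% of replicates reaching 50%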;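 note: plate controls were DMSO neutral control for no effect and GW8510 at 10 µM for full effect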
Rtt109 HAT inh – inhibitors of Candida albicans Rtt109/Vps75 histone acetyltransferase; Q5AAJ8; purified Rtt109/Vps75, ThioGlo CoA-SH fluorescence, 4 h; inhibition, % at 34.9 µM; actives 0.16% (n = 330,000);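 active = inhibition of at least 50% in every replicate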
* = called active by the depositor; . = not tested or not shown. This is a sample that favours compounds with a hit; in the whole collection about 1% have one here.

SMILES | Statin myotox sup | UUG fidelity | Cneo AK release | CDK5 p35 inh | Rtt109 HAT inh
Cc1ccc(N(C(=O)C2CCC(=O)N2)C2(C(=O)NC3CCCCC3)CCCCC2)cc1 (configuration not stated) | 119* | 4 | -2 | 0 | -10
Cc1ccc(S(=O)(=O)Nc2ccc3c(c2)C(=O)N([C@@H](C)CO)C[C@H](C)[C@H](CN(C)CC2CCCCC2)OCCCC[C@@H](C)O3)cc1 | . | 28 | -6 | . | .
COc1ccc(-c2csc(C(NC(C)=O)c3cccc(OC)c3)n2)cc1 (configuration not stated) | 44 | -16 | 0 | . | .
COc1ccc(-c2csc(C(NC(C)=O)c3cccc(F)c3)n2)cc1 (configuration not stated) | 76* | -10 | -1 | . | .
COc1cccc(-c2nn(C)c3sc(C(=O)N4CCN(c5ccccn5)CC4)cc23)c1 | 8 | 14 | 1 | 0 | 51*
CCOC(=O)C1CCCN(C(=O)c2cc3c(-c4cccc(OC)c4)nn(C)c3s2)C1 (configuration not stated) | 96* | -2 | -2 | -1 | 23
CCOC(=O)C1CCN(C(=O)c2cc3c(-c4ccc(OC)c(OC)c4)nn(C)c3s2)CC1 | 15 | 8 | 2 | 1 | -3
C[C@H]1CN([C@@H](C)CO)C(=O)c2cc(C3=CCCCC3)cnc2O[C@H]1CN(C)C(=O)c1cccnc1 | -8 | 19 | -3 | . | .
CCOC(=O)N1CCN(C(=O)c2ccc3c(=O)n(CCc4ccccc4)c(=O)[nH]c3c2)CC1 | 177* | -20 | -1 | 0 | -3
CCCCCn1c(=O)[nH]c2cc(C(=O)N3CCN(C(=O)OCC)CC3)ccc2c1=O | -4 | -1 | 2 | 0 | -2
CCCN1C[C@H](C)[C@H](OC)CN(C)C(=O)c2ccc(NS(=O)(=O)c3ccccc3)cc2OC[C@@H]1C | -5 | 38 | -1 | . | .
O=C(Cc1ccc(F)cc1)Nc1cccc2cccnc12 | . | -16 | 2 | 1 | 63*
CCC(=O)Nc1cccc2cccnc12 | 7 | -16 | 2 | 1 | .
COCCN=C1Sc2nc3c(C)cccc3cc2CN1Cc1ccco1 | 114* | -24 | -2 | 1 | -7
Cc1cccc2cc3c(nc12)SC(=NCC1CCCO1)N(Cc1ccco1)C3 (configuration not stated) | . | -24 | 0 | 0 | -1
CCCNC(=O)Nc1ccc2c(c1)OC[C@H](C)N(C(=O)CC)C[C@@H](C)[C@@H](OC)CN(C)C2=O | -1 | 15 | 41 | . | .
COc1cccc(S(=O)(=O)Nc2ccc3c(c2)[C@@H]2C[C@H](CC(=O)N[C@@H](C)c4ccccc4)O[C@@H](CO)[C@@H]2O3)c1 | 15 | 8 | -2 | . | .
CCCNC(=O)NC(=O)CSc1nnc(C)n1N | 80* | 11 | -1 | 0 | 2
O=C(Nc1ccc(Cl)c(S(=O)(=O)N2CCCCC2)c1)C1=COCCO1 | -2 | 7 | -2 | 0 | 52*
CCc1nc(SCC(=O)Nc2cc(C)on2)c2c(C)c(C)sc2n1 | 130* | -7 | -1 | 0 | 0
Cc1cc(NC(=O)CSc2nc(C3CC3)nc3sc(C)c(C)c23)no1 | 32 | -16 | 0 | -2 | 3
COc1ccc(CN(C)C[C@@H]2Oc3ccc(NS(C)(=O)=O)cc3CC(=O)N([C@H](C)CO)C[C@H]2C)cc1 | 15 | 19 | 97* | . | .
COc1ccc(CN(C)C[C@@H]2Oc3ccc(NS(C)(=O)=O)cc3CC(=O)N([C@@H](C)CO)C[C@@H]2C)cc1 | -20 | . | . | . | .
COc1ccc(CN(C)C[C@@H]2Oc3ccc(NS(C)(=O)=O)cc3CC(=O)N([C@@H](C)CO)C[C@H]2C)cc1 | -6 | -13 | 2 | . | .
COc1ccc(CN(C)C[C@H]2Oc3ccc(NS(C)(=O)=O)cc3CC(=O)N([C@@H](C)CO)C[C@H]2C)cc1 | 9 | -4 | 81* | . | .
CCOc1ccccc1Nc1nc(N)nc(Cl)c1CC | 107* | -11 | -2 | 0 | 1
O=C(CSCCO)N1CCc2ccccc21 | 116* | 19 | 24 | 1 | -3
CCCCCCCCCC(=O)N1CCN(c2cc3c(cc2F)c(=O)c(C(=O)O)cn3CC)CC1 | -1 | -5 | 4 | 0 | -4
CCCCCCC(=O)N1CCN(c2cc3c(cc2F)c(=O)c(C(=O)O)cn3CC)CC1 | 153* | -18 | -1 | 0 | -3

Fetched by compound from the list above:
SMILES | Statin myotox sup | UUG fidelity | Cneo AK release | CDK5 p35 inh | Rtt109 HAT inh
Cc1cc(NC(=O)CSc2nc(C3CC3)nc3sc(C)c(C)c23)no1 | 32 | -16 | 0 | -2 | 3
CCOC(=O)C1CCCN(C(=O)c2cc3c(-c4cccc(OC)c4)nn(C)c3s2)C1 (configuration not stated) | 96* | -2 | -2 | -1 | 23
O=C(Nc1ccc(Cl)c(S(=O)(=O)N2CCCCC2)c1)C1=COCCO1 | -2 | 7 | -2 | 0 | 52*
Cc1ccc(N(C(=O)C2CCC(=O)N2)C2(C(=O)NC3CCCCC3)CCCCC2)cc1 (configuration not stated) | 119* | 4 | -2 | 0 | -10
